The values that follow are results of earlier work, collected in patent US5486541A (Teva Pharmaceutical Industries, Ltd., priority 1991, dated 1996).

For this data set, the system named is MAO-B. To be noted: cited from earlier work.

In the case of `C#CCN(C)[C@H](C)Cc1ccccc1` [(-)-deprenyl], the “MAO-B inhibition by (-)-deprenyl (in words)” value is “selectively and irreversibly inhibited”.
